In the assay the test system is MDA-MB-468 breast. As to the kind of experiment: growth of human tumour cells (NCI), 48 h.

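Cultured in 96-well plates, cells were exposed to test compound for 48 hours across five concentrations. GI50 marks 50% less growth. TGI denotes the concentration required for complete inhibition of growth.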

For the molecule `Nc1ccc(N(CCCl)CCCl)cc1`, the GI50 is 3.13 µM and the TGI amounted to 30.3 µM.

Source of the values: PubChem BioAssay (NCI).
